Source: PubChem BioAssay AID1530 (NMMLSC, 2009)
This is a selection; strong and weak results do not stand in their true shares. Active and inactive are the calls of the source. Cut-off read from the data, not from the text of the source: active = percent response above about 24% (passing the limit was not always enough); inactive = the rest.

tested on: MEKK2 (MAP3K2) mutant PB1 domain binding to MEK5, human; assay: MEK5 binding signal on mutant MEKK2 PB1, primary screen, biochemical, multiplex bead flow cytometry, Alexa488-MEK5 (AID 1530); settings: at 10 µM, hits give high values

Structure (SMILES)	percent response
Cc1cc(SC(NC(=O)c2ccc(F)cc2)C(Cl)(Cl)Cl)ncn1 (stereo not given)	inactive: 8%
CCOP(=O)(Nc1ccccc1)OCC	inactive: 1%
CN(C(=O)Cc1ccc(Cl)c(Cl)c1)[C@H]1CCCC[C@@H]1N1CCCC1	inactive: 5%
Cc1ccc(NP(=O)(Oc2ccccc2F)Oc2ccccc2F)nc1	inactive: 21%
CC(=O)Nc1ccc([As](=O)(O)O)cc1	inactive: 4%
O=C(O)c1ccccc1[As](=O)(O)O	inactive: 9%
O=P(Nc1nc2ccc(Cl)cc2s1)(c1ccccc1)c1ccccc1	inactive: -5%
Cc1ccccc1OP(=O)(Nc1ccccn1)Oc1ccccc1C	inactive: -22%
O=c1c2cc([N+](=O)[O-])ccc2[nH]c2c([N+](=O)[O-])cc([N+](=O)[O-])cc12	inactive: -12%
CN(C)C(=O)Oc1noc2ccccc12	inactive: 0%
COC(=O)c1cc2c(s1)N=C(c1ccccc1)N(C)P2(=O)N1CCOCC1 (stereo not given)	inactive: 15%
CC(=O)NC(SC(=S)N(CC(C)C)CC(C)C)C(Cl)(Cl)Cl (stereo not given)	inactive: 1%
Cc1ccc(OP(=O)(Nc2ccccn2)Oc2ccc(C)cc2)cc1	inactive: -2%
O=C(OC1CN2CCC1CC2)c1ccccc1 (stereo not given)	inactive: -10%
CCC(=O)N1C2C3N(C(=O)CC)C1C1N(C(=O)CC)C(C(N1C(=O)CC)N3C(=O)CC)N2C(=O)CC	inactive: 6%
O=C(NC1CCS(=O)(=O)C1)NP(=S)(Oc1ccccc1)Oc1ccccc1 (stereo not given)	inactive: -2%
CCNC(=S)/N=C(\N)N[N+](=O)[O-]	inactive: 10%
c1ccc(-c2nn[nH]n2)c(-c2nn[nH]n2)c1	inactive: -16%
Cc1ccc(NP(=O)(Oc2cccc(C)c2)Oc2cccc(C)c2)nc1	inactive: -21%
CCOC(=O)NC(Sc1ccccc1)C(Cl)(Cl)Cl (stereo not given)	inactive: 2%
CC(=O)Nc1ccc([As](=O)(O)O)c(O)c1	inactive: -11%
CC(=O)Nc1ccc(Oc2c([N+](=O)[O-])cc([N+](=O)[O-])cc2[N+](=O)[O-])cc1	inactive: -2%
CC(=O)c1ccc(N2CC2c2ccncc2)cc1 (stereo not given)	inactive: 0%
C[C@H]1OP(=O)(Oc2ccccc2)C[C@@H]2O[C@@H]21 (stereo not given in full)	inactive: 4%
C[C@@H]1C=CCP(=O)(Oc2ccccc2)O1 (stereo not given in full)	inactive: 3%
CC(C)(C)C(=O)NC(Sc1ccccc1)C(Cl)(Cl)Cl (stereo not given)	inactive: -10%
O=P1(Nc2nc3ccc(Cl)cc3s2)COc2ccccc2O1 (stereo not given)	inactive: 3%
CCOc1ccc(C2=NCC(CBr)S2)cc1 (stereo not given)	inactive: -1%

Structure (SMILES)	percent response
c1nnnn1CCn1cnnn1	inactive: 3%
O=P(Nc1nccs1)(c1ccccc1)c1ccccc1	inactive: 3%
CC(C)C(=O)NC(Sc1ccccc1)C(Cl)(Cl)Cl (stereo not given)	inactive: 0%
C(Cc1nn[nH]n1)Cc1nn[nH]n1	inactive: 1%
Nc1ccc([As](=O)(O)c2ccc([N+](=O)[O-])cc2)cc1	inactive: -3%
O=C(OC1CN2CCC1CC2)c1cccc(Cl)c1 (stereo not given)	inactive: 5%
CC(=O)NC(SC(=S)N(C)C)C(Cl)(Cl)Cl (stereo not given)	inactive: -1%
O=[N+]([O-])c1ncn(CCn2cnc([N+](=O)[O-])n2)n1	inactive: 2%
O=[N+]([O-])c1ccc(O)c(/C=N/Nc2ccc([N+](=O)[O-])cc2[N+](=O)[O-])c1	inactive: 1%
O=[As](O)(c1ccccc1)c1ccc(O)cc1	inactive: 6%
O=P(Nc1nc2ccccc2s1)(c1ccccc1)c1ccccc1	inactive: -3%
C[C@H]1OP(=O)(Oc2ccccc2)[C@H](O)[C@H](O)[C@H]1N=[N+]=[N-] (stereo not given in full)	inactive: 4%
CN(C)C1(CNC(=O)c2ccc(Cl)c(S(N)(=O)=O)c2)CCCCC1	inactive: 5%
O=P(Nc1ccccn1)(c1ccc(Br)cc1)c1ccc(Br)cc1	inactive: 2%
Cc1ccc(OCC(=O)OC2CN3CCC2CC3)cc1 (stereo not given)	inactive: 1%
O=[As](O)(c1cccs1)c1cccs1	inactive: 9%
O=P1(Nc2ccc(Br)cn2)COc2ccccc2OC1	inactive: -3%
Nc1cccc([As](=O)(O)c2ccccc2)c1	inactive: 5%
O=P1(Nc2ncccn2)COc2ccccc2OC1	inactive: -3%
O=C(/C=C/c1ccccc1)OC1CN2CCC1CC2 (stereo not given)	inactive: 1%
CN(C)C1(CNC(=O)c2ccc(S(C)(=O)=O)cc2)CCCCC1	inactive: -12%
Cc1ccc(C(=O)OC2CN3CCC2CC3)cc1 (stereo not given)	inactive: 1%
CC1CCC(C(C)C)C(OP(=O)(Nc2ccccn2)c2ccccc2)C1 (stereo not given)	inactive: -3%
O=[As](O)(c1ccccc1Br)c1ccccc1Br	inactive: -6%
CC1(CBr)Cn2c(nc3ccccc3c2=O)S1 (stereo not given)	inactive: 18%
CN(C(=O)Cc1ccc(Cl)c(Cl)c1)[C@@H]1CCCC[C@H]1N1CCCC1	inactive: 5%
CC(C)/C=N\N=C(\N)N[N+](=O)[O-]	inactive: 5%
